Test results published in PMC7659582 (Cell Reports Medicine, 2020).

Protein sequences, listed by entry. Tags and fused reporters are not part of them. Lines headed by an entry give the natural chain unless they say otherwise; changes in a name come on top.
UniProt Q12809: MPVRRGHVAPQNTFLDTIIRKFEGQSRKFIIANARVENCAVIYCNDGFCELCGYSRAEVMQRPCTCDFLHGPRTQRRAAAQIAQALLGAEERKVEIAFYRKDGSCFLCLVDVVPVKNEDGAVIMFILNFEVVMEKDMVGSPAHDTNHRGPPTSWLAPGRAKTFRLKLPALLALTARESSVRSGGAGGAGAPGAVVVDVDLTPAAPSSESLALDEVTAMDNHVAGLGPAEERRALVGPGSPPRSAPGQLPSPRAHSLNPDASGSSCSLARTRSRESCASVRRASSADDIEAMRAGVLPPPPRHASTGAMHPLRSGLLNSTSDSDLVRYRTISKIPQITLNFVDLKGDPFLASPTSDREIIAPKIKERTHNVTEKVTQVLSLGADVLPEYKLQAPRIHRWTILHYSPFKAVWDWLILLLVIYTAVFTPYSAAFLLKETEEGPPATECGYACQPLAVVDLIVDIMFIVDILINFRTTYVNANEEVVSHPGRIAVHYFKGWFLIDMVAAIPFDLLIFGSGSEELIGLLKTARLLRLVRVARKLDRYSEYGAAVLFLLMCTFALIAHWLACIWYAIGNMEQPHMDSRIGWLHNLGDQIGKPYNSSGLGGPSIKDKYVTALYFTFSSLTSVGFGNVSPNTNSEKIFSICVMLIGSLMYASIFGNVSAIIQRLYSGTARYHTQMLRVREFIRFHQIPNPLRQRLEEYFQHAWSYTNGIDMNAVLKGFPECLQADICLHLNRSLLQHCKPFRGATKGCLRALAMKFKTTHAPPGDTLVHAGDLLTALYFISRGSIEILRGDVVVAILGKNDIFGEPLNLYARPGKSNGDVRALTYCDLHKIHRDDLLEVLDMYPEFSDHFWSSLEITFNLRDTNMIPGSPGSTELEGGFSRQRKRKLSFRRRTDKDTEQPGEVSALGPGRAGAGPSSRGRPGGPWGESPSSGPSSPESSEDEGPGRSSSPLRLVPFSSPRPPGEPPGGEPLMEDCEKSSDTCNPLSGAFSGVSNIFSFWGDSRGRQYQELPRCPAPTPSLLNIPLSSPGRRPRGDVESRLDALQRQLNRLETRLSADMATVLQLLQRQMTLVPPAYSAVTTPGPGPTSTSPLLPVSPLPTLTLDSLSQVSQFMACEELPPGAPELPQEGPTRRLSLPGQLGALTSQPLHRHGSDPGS

Target: hERG (Homo sapiens, UniProt Q12809)

CC(C)COCC(CN(Cc1ccccc1)c1ccccc1)N1CCCC1 (stereo not shown) [BEPRIDIL]
hERG IC50/Free Cmax Ratio: 1.42
